The results in this text go back to doi:10.1101/2021.05.05.442822.

Read-outs that look alike come from different tables or passages of the source.

What all share (experiment): FP
Experiment [1] addresses H3K9me1 monomethylated mononucleosome (UniProt P84233). The conditions noted are these: complex.
Experiment [2] addresses H3K9me2 dimethylated mononucleosome (UniProt P84233). The conditions noted are these: complex.
Experiment [3] concerns the target unmethylated (H3K9me0) mononucleosome (UniProt P84233).

What is called Kd is a measure of binding affinity in units of concentration. The low end stands for tighter binding, the high end for weaker binding. With “G9a-GLP ANK-SET heterodimer, tagless (from UniProt Q96KQ7)”, the Kd in experiment [1] came out at 2.26 µM; in experiment [2], 4.76 µM; in experiment [3] (complex), 6.5 µM.

“GLP ANK-SET homodimer (from UniProt Q9H9B1)” had a Kd in experiment [1] of 5 µM.

On to “G9a ANK-SET homodimer (from UniProt Q96KQ7)”, for which the Kd in experiment [2] was found to be 18.4 µM; in experiment [3] (complex) it was 7.42 µM.

G9aS-GLP: the Kd in experiment [3] is over 70 µM.
